This note sets out measurements from patent US9115093B2, “Substituted bicyclic dihydropyrimidinones and their use as inhibitors of neutrophil elastase activity” (Boehringer Ingelheim International GmbH, priority 2013, dated 2015).

The chains behind the UniProt entries cited, without tags or fusion partners. Residues count along the entry.
UniProt P08246, 30-247 limits assumed: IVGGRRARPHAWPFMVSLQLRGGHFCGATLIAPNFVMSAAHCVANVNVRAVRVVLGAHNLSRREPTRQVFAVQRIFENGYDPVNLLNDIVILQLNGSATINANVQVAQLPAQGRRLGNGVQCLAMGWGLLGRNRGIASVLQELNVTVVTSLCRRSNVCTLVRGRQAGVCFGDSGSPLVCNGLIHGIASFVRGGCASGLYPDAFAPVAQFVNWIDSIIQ

Each structure is given as a SMILES string.

This test addresses Human neutrophil elastase (Homo sapiens, UniProt P08246). Put plainly: Human Neutrophil Elastase Assay. It is filed as biochemical. The conditions noted are these: substrate MeOSuc-Ala-Ala-Pro-Val-AMC, pH 7.5, room temperature.
Usually IC50 stands for the midpoint of a concentration-inhibition curve. A lower IC50 goes with greater potency in that assay. The compound `COC1CCN(C(=O)CN2C(=O)N(c3cccc(C(F)(F)F)c3)C3=C(C(=O)CCC3)C2c2ccc(C#N)cc2S(C)(=O)=O)CC1` (stereo not drawn) registered an IC50 of 1.6 nM.

In the case of `CS(=O)(=O)c1cc(C#N)ccc1[C@@H]1C2=C(CCCC2=O)N(c2cccc(C(F)(F)F)c2)C(=O)N1C(=O)NC12CC(C1)C2`, the IC50 was < 1 nM.

For `COCCCN1C(=O)N(c2cccc(C(F)(F)F)c2)C2=C(C(=O)CCC2)C1c1ccc(C#N)cc1S(C)(=O)=O` (stereo not drawn), the IC50 amounted to 1.3 nM.
